The target in this experiment is Histone deacetylase. Put plainly: Inhibition of HDAC in human HeLa cell extract using Boc-Lys (acetyl)-AMC as substrate incubated for 10 mins prior to substrate addition measured after 30 mins by fluorescence assay. It counts as protein assay.

In general, IC50 refers to the concentration at which inhibition is half-maximal. Low values mean greater potency, high ones weaker potency.

Compound `O=C(/C=C/c1cccc(OC[C@H](Cc2c[nH]c3ccccc23)NC(=O)c2ccc(Cl)cc2)c1)NO` registered an IC50 of 369.8 nM.

For the origin of these results see ChEMBL document CHEMBL3351443, “Development of 3-hydroxycinnamamide-based HDAC inhibitors with potent in vitro and in vivo anti-tumor activity” (Eur J Med Chem, 2015).
